Reference: patent US11542261B2, “Substituted Imidazo[1,2-a]-pyridines as IRAK 1/4 and FLT3 inhibitors” (CHILDREN'S HOSPITAL MEDICAL CENTER, priority 2016, dated 2023)

Key:
THP-1 cells = assay: Inhibitory activity against THP-1 cells; format: cell-based; details: THP-1 cells (FLT3 wild type AML); data not shown
Kasumi-1 cells = assay: Synergy of I-24/1481 with venetoclax in Kasumi-1 cells (MTS); format: cell-based; details: Homo sapiens, denominator of the dose ratio, read-out: concentration giving the IC50 response when administered alone
Description: Data were analyzed by Prism v 8. […] FIG. 15C depicts the relevant heat maps; data in the upper heat maps indicates the Bliss Scores, and the lower heat map indicates the individual data points for the various dose response curves. Methods: Day 0: Cell Line Plating in growth media recommended by ATCC using Tecan Fluent in 96 well plate (Eppendorf 0030730011); Day 1: Drug Addition. Venetoclax obtained from Selleckchem (S8048); Day 1→4: Incubate with Drug for 72 Hrs at 37 C, 5% CO2; Day 5: Add 20% original volume MTS (Promega G5440) and incubate for 4 Hrs.; Add 25% original volume 10% SDS (Invitrogen 24730-020) to lyse cells and stop conversion of MTS to formazan. Read out is colorimetric at 490 nm using a BioTek Synergy Neo Plate Reader.

[1] = system: normal cord blood CD34+ cells; details: 1 μM, 10 days

Row | SMILES | concentration without any inhibitory activity (THP-1 cells) [µM] | IC50 (Kasumi-1 cells) [nM] | colony formation of normal CD34+ cells [1]
1 | COc1cc2ncc(-c3cccc(NC4CCNC4)n3)n2cc1-c1cccnc1 (stereo not drawn) [Compound I-22, 6-(7-methoxy-6-(pyridin-3-yl)imidazo[1,2-a]pyridin-3-yl)-N-(pyrrolidin-3-yl)pyridin-2-amine] | > 10 | – | –
2 | COc1cc2ncc(-c3cccc(NC4CCNC4)n3)n2cc1-c1cnn(C)c1 (stereo not drawn) [Compound I-24, 6-(7-methoxy-6-(1-methyl-1H-pyrazol-4-yl)imidazo[1,2-a]pyridin-3-yl)-N-(pyrrolidin-3-yl)pyridin-2-amine] | – | 143 | inhibited colony formation of normal CD34+ cells
